In patent US6699834B1, “Method for treating cancer” (University of Maryland Biotechnology Institute, priority 1997, dated 2004):
“Also recorded” adds a separate entry of the source.

Legend:
[1] = system: KS Y-1 and KS-SLK cells; test: Kaposi's Sarcoma clonogenic assay in cultured cells; format: cell-based, human; conditions: for KS in vitro: inhibition of Kaposi's Sarcoma cell growth in vitro in cultured cells; for inhibition of KS cell growth in clonogenic assays (in words): KS Y-1 and KS SLK
Method: Briefly, the KS Y-1 cells were obtained from mononuclear cells isolated from pleural effusion of an AIDS patient with KS in the lungs. After the depletion of T lymphocytes, monocytes/macrophages and fibroblasts using monoclonal antibodies against CD2, CD3, CD4, CD8, CD10 and CD14 membrane antigens and baby rabbit complement, the cells were cultured in the absence of exogenous growth factors to select for transformed cells. […] Clonogenic assays were performed by seeding the KS Y-1 or KS-SLK cells in methylcellulose (0.8%, v/v), incubating the cells for 10 days in the presence or absence of the hCC, β-hCG or β-hCG peptide preparations and then counting the number of well-formed colonies of triplicate wells formed after seeding with 5×10^4 cells.
To assay for activity against Kaposi's sarcoma cell growth in vitro, the clonogenic assay described herein was used with the KS Y-1 and KS-SLK cultured Kaposi's Sarcoma cell lines,. The cells were incubated in 200 IU/ml of commercial hCG preparations; 50 μl/ml of certain fractions from the hCG preparation of early pregnancy urine fractionation; or 100 μg/ml β- and α-hCG chains, β-hCG core protein, β-hCG peptides or LH (leuteinizing hormone).

[2] = system: Kaposi's Sarcoma induced in mice; test: Kaposi's Sarcoma tumors induced in mice by KS Y-1 cells; format: in vivo; conditions: inhibition of Kaposi's Sarcoma induced in mice
Method: The effects of the peptides on KS tumor cells were also evaluated in vivo in the KS mouse model. To induce KS tumors in the mice, 1×10^6/ml KS Y-1 cells in 50 μl PBS or saline were injected subcutaneously into immunodeficient mice (beige-XID-BNX mice). After one week, tumors ranged in size from 2 mm×3 mm to 3 mm×5 mm. Methods for detection of apoptosis (from tissue biopsies) were used, as described in Lunardi-Iskandar et al.(1995, Nature 375:64-68). Briefly, the samples were stained in situ for the presence of cells with DNA fragmentation. Tissue slides from formalin-fixed tumors were treated with terminal deoxynucleotide transferase for extension of DNA ends (hydroxyl 3′) and incorporation of digoxigenin-11-dUTP according to the manufacturer's instructions (Oncor, Gaithersburg, Md.). Anti-digoxigenin antibody conjugated with the enzyme peroxidase allowed detection of apoptotic cells, which stain brown, whereas viable cells stain blue.
Certain fractions were tested for activity in reducing Kaposi's Sarcoma lesions in the Kaposi's Sarcoma mouse model as described herein. In this assay, starting one week after injection of the KS Y-1 cells to induce Kaposi's sarcoma formation, the mice were injected subcutaneously with 100 IU hCG. […] After one week of the week of treatment with the hCG fractions, the KS lesions were examined for cell apoptosis and regression as described herein.
Certain fractions of the APL™ hCG and early pregnancy urine were assayed for their ability to elicit apoptosis in Kaposi's Sarcoma lesions induced by injection of KS Y-1 cells in mice (n=3 mice for each treatment). The mice were administered 100 μl subcutaneously of the particular fraction each day for one week. Table 4 presents data on the size of the Kaposi's Sarcoma lesions and the percentage of apoptotic cells within the lesion after one week of treatment with fractions 60, 64, 64, 74, 82 and 85 of the APL™ hCG fractions and the unfractionated APL™ hCG preparation. […] Treatment with fractions 82 and 85 (containing material with apparent molecular weights smaller than approximately 2-3 kD) of the APL™ hCG material also elicited almost no Kaposi's Sarcoma lesion regression or apoptosis (Table 4). The unfractionated APL™ hCG, as well as fractions 60 and 74 (fractions within the peaks containing material with apparent molecular weight of approximately 15 kb and 2-3 kD, respectively) of the APL™ hCG fractionated material, caused about 50% apoptsis within the lesion and significant lesion regression (Table 4).

[3] = system: hematopoietic progenitor cells; test: Hematopoietic progenitor clonogenic assays (CFU-GEMM, BFU-e, CFU-GM); format: cell-based, human; conditions: for Pro-hematopoiesis in vitro Enhancement: relative increase of hematopoietic colony cell number, hCG preparations 200 IU/ml, subunits and peptides 100 μg/ml
Method: The effect of hCG preparations and peptides was assayed on hematopoietic progenitor cells in vitro: Hematopoietic progenitor cells (2×10^5 cell/ml) were isolated from normal bone marrow and cord blood and seeded in methylcellulose. The following hCG preparations and peptides were used in these clonogenic assays were: hCG (APL™); hCG alpha subunit (Sigma); purified hCG heterodimer CR 127; β-hCG peptide 109-119 (SEQ ID NO:7) (Bachem); β-hCG peptide 45-57 (SEQ ID NO:6); β-hCG, peptide 45-57 circularized (44-57 with cysteine substituted for the amino acid at position 44, SEQ ID NO:26); mixture of scrambled β-hCG peptides 45-57 and 109-119; and crude preparation of native β-hCG Also tested were the peptides 45-57 linked at the C-terminus via a peptide bond to the N-terminus of 109-119 (45-57::109-119; SEQ ID NO:30), 47-55 (SEQ ID NO:20) and 48-56 (SEQ ID NO:35) as well as other hCG, α-hCG and β-hCG preparations and α-hCG and β-hCG peptides (Table 3). The hCG preparations were administered at 200 IU/ml and the β- and α-subunits and peptides were administered at 100 μg/ml. The native commercial preparation of hCG (APL™, Wyeth Ayerst) was pre-tested for anti-HIV and anti-KS activities. Aggregates containing more than 50 cells after 10 days of culture were counted as colonies.

Substance: CR1XY17B: mixture of highly purified α-hCG and β-hCG from NICHD, NIH [reference compound]
- KS in vitro [1]: − (“−” represents less than 10% effect)
- KS in vivo [2]: − (“−” represents less than 10% effect)
- Pro-hematopoiesis in vitro Enhancement [3]: − (“−” represents less than 10% effect)

Substance: CR1XY17V: highly purified hCG preparation from NICHD, NIH [reference compound]
- KS in vitro [1]: − (“−” represents less than 10% effect)
- Pro-hematopoiesis in vitro Enhancement [3]: − (“−” represents less than 10% effect)

Substance: CR127: highly purified hCG preparation from NICHD, NIH [reference compound]
- inhibition of KS cell growth in clonogenic assays (in words) ([1]; listed as C-R127): inactive
- inhibition of KS cell growth in clonogenic assays (in words) ([1]; listed as CR 127): negligibly
- KS in vitro [1]: − (“−” represents less than 10% effect)
- promotion of hematopoiesis (in words) [3]: but not by; also recorded: did not promote hematopoiesis
- Pro-hematopoiesis in vitro Enhancement [3]: − (“−” represents less than 10% effect)

Substance: ORGANON: a highly purified hCG preparation obtained from Organon
- KS in vitro [1]: − (“−” represents less than 10% effect)
- KS in vivo [2]: − (“−” represents less than 10% effect)

Substance: rhCG: recombinant hCG expressed in a mouse cell line (Sigma)
- inhibition of KS cell growth in clonogenic assays (in words) [1]: negligibly
- KS in vitro [1]: − (“−” represents less than 10% effect)
- KS in vivo [2]: − (“−” represents less than 10% effect)
- Pro-hematopoiesis in vitro Enhancement [3]: − (“−” represents less than 10% effect)

Substance: rαhCG: recombinant α subunit expressed in mouse cells (Sigma)
- KS in vitro [1]: − (“−” represents less than 10% effect)
- KS in vivo [2]: − (“−” represents less than 10% effect)
- Pro-hematopoiesis in vitro Enhancement [3]: − (“−” represents less than 10% effect)

Substance: αfp1769A: purified, native α subunit (NICHD, NIH)
- KS in vitro [1]: − (“−” represents less than 10% effect)
- Pro-hematopoiesis in vitro Enhancement [3]: − (“−” represents less than 10% effect)

Substance: αhCG: purified native α subunit of hCG (Sigma)
- inhibition of KS cell growth in clonogenic assays (in words) [1]: negligibly
- KS in vitro [1]: − (“−” represents less than 10% effect)
- KS in vivo [2]: − (“−” represents less than 10% effect)
- promotion of hematopoiesis (in words) [3]: did not promote hematopoiesis
- Pro-hematopoiesis in vitro Enhancement [3]: − (“−” represents less than 10% effect)
